Molecular target: T1, reuptake of dopamine in synaptosomes of rat forebrain (Rattus norvegicus, UniProt P23977)
T1 construct: from tissue; host or cells: whole forebrain of male Wistar rats (crude synaptosomal supernatant)
Assay: inhibition of reuptake of dopamine (3H-dopamine) in synaptosomes
Assay type: biochemical
Details: ratio to Win 35,428

Sequences of proteins named here, by UniProt entry; tags and fusion partners are left off.
UniProt P23977, whole entry: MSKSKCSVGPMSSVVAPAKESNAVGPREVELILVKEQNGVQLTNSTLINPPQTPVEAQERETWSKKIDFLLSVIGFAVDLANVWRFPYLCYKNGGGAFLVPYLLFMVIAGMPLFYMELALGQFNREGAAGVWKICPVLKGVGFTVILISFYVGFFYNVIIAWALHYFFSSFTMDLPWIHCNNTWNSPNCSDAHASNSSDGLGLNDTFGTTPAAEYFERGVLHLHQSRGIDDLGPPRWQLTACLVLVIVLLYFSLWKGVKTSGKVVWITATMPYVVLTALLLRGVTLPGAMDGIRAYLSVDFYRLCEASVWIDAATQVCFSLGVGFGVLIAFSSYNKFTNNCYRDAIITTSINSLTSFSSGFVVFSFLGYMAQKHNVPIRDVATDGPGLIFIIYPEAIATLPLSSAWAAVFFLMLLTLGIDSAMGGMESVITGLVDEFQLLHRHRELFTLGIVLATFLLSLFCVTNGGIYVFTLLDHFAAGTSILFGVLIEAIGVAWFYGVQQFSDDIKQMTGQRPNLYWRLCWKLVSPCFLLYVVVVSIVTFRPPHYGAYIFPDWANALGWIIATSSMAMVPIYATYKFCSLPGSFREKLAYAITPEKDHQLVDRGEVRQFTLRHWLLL

## COC(=O)[C@@H]1[C@@H](c2ccc(F)cc2)C[C@@H]2CC[C@H]1N2C [trans isomer of Win 35,428, (1R,2R,3S)-2-carbomethoxy-3-(4-fluorophenyl)tropane, reference compound]
  times less potent as compared to the cis isomer (Win 35,428) as a dopamine reuptake inhibitor: ~50 times

— patent EP0604352B1, “Aryl-substituted heterocyclic compounds” (N[…]/S, priority 1992, dated 1994)
